Only a part is listed here, and it is no random draw. Calls of active or inactive are those of the source. Rule as the data show it: active = activity change below about -30%; inconclusive = mostly about -25% to -30%; inactive = weaker than that.
biological target: L-lactate dehydrogenase A chain (Homo sapiens) (UniProt P00338); assay: qHTS assay for inhibitors of human lactate dehydrogenase; settings: purified LDHA, NADH/diaphorase-resazurin fluorescence; hits give low values;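 also: values are at about 110 or 230 µM; plate controls were DMSO wells for no effect and wells without enzyme for full effect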
Source text: LDH is a key glycolytic enzyme that catalyzes the final step in the glycolytic pathway, reducing pyruvate to lactate and regenerating NAD+ equivalents necessary for continued glycolysis. LDHA has been linked to the carcinogenesis and malignancy in numerous forms of cancers and many other diseases. Consequently, both pharma and academia have invested in significant research efforts to identify small molecule therapeutics. Such attempts have been stalled or abandoned due to limited success in discovering potent and drug-like inhibitors that can be utilized to validate LDHA in vivo as a drug target, a necessary step toward advancing such a molecule towards the clinic Towards this goal we designed and performed a quantitative high-throughput screening (qHTS) campaign to discover novel compounds that are potent inhibitors of LDHA enzyme activity and cancer cell line growth.
The assay was optimized to 1536-well plates. Briefly, 3 µL of human lactate dehydrogenase 5 (#A38558H, Meridian Life Science, Inc., Memphis, TN) in LDH assay buffer (200 mM Tris HCl pH 7.4, 100 microM EDTA and 0.01% Tween-20) was added to a black solid bottom 1536-well assay plate (Greiner Bio-One) using a BioRAPTR FRD dispenser (Beckman Coulter, Brea, CA). A 1536-well pintool dispenser outfitted with 20 nL pins (Wako Automation, San Diego, CA) was used to transfer 23 nL of DMSO-solubilized compound (both library and vehicle controls) to each 1536-well assay plate. Following compound transfer, 1 µL of substrate solution containing NADH and sodium pyruvate (Sigma-Aldrich, St. Louis, MO) in LDH assay buffer was dispensed via BioRAPTR FRD to initiate the reaction. Final concentrations in the 4 microL reaction volume were 2 nM LDHA enzyme, 0.06 mM NADH and 0.2 mM sodium pyruvate. Following a 5 minute incubation period at room temperature, 1 µL of detection reagent (C. kluyveri diaphorase (Sigma-Aldrich) and resazurin sodium salt (Sigma-Aldrich) in LDH assay buffer) was added to a total volume of 5 µL. Final concentrations of detection reagents were 0.133 mg/mL diaphorase and 37 µM resazurin. Plates were immediately transferred to a ViewLux microplate imager (PerkinElmer, Waltham, MA), and any resulting resorufin fluorescence was measured (ex540, em590 nm) at 0 and 20 minutes. Fluorescence was normalized using enzyme-free and DMSO-treated control wells on each plate.

SMILES	activity change
CP(=S)(Nn1cnnc1)Oc1ccccc1 (centres undefined)	inactive: -0.957%
CP(=O)(Nc1ccccc1Br)Oc1ccccc1 (centres undefined)	inactive: -2.21%
COc1ccccc1OP(C)(=O)Nc1ccccc1 (centres undefined)	inactive: -7.83%
O=[N+]([O-])c1cc([N+](=O)[O-])c(O)c([N+](=O)[O-])c1.c1ccc(Oc2ccncc2)cc1	inactive: -7.48%
CCOC(=O)c1ccc(NP(C)(=O)Oc2ccc(OC)cc2)cc1 (centres undefined)	inactive: -2.63%
CCOP(C)(=S)SCC(=O)NC(C)C(=O)O (centres undefined)	inactive: -5.85%
CP(=O)(Nc1ccccn1)Oc1ccc(Cl)cc1 (centres undefined)	inactive: -5.69%
CP(=O)(Oc1ccccc1)OC(c1ccccc1)C(F)(F)F (centres undefined)	inactive: -9.74%
CP(=O)(Nc1ccc(SC(F)(F)F)cc1)Oc1ccc(Cl)cc1 (centres undefined)	inactive: 3.29%
Cc1cccc(C)c1OP(C)(=O)Nc1ccc(SC(F)(F)F)cc1 (centres undefined)	inactive: 0.272%
Cc1cc(C)cc(OP(C)(=O)Nc2ccc(SC(F)(F)F)cc2)c1 (centres undefined)	inactive: 2.85%
CCc1ccc(OP(C)(=O)N2CCN(c3ccc([N+](=O)[O-])cc3)CC2)cc1 (centres undefined)	inactive: -10.7%
CP(=O)(NC(=O)Nc1ccccc1)Oc1ccccc1 (centres undefined)	inactive: -0.177%
COc1ccccc1-c1ccccn1.O=[N+]([O-])c1cc([N+](=O)[O-])c(O)c([N+](=O)[O-])c1	inactive: -3.5%
CCN(CC)CCCOC(=O)C(O)(c1ccccc1)c1ccccc1	inactive: -2.82%
Cc1ccc(NP(C)(=O)Oc2ccccc2)c(C)c1 (centres undefined)	inactive: -5.08%
COc1ccccc1OP(C)(=O)Nc1ccc(C)cc1 (centres undefined)	inactive: -3.95%
CCOC(=O)c1ccc(NP(C)(=O)Oc2ccccc2)cc1 (centres undefined)	inactive: -5.1%
Cc1cc(C)cc(OP(C)(N)=O)c1 (centres undefined)	inactive: 4.11%
COc1ccc(OP(C)(=O)Nc2cccc(F)c2)cc1 (centres undefined)	inactive: 1.42%
COc1ccccc1OP(C)(=O)Nc1cc(Cl)ccc1C (centres undefined)	inactive: 2.68%
O=[N+]([O-])c1cc([N+](=O)[O-])c(Nc2cccnc2)c([N+](=O)[O-])c1	inactive: 7.49%
O=[N+]([O-])c1ccc2c(c1)C=Nc1ccccc1O2	inactive: 5%

SMILES	activity change
Cc1cccc(C)c1OP(C)(N)=O (centres undefined)	inactive: -2.99%
CC(C)(C)c1ccc(OP(C)(=O)Nc2ccc(SC(F)(F)F)cc2)cc1 (centres undefined)	inactive: 3.48%
CC1=NCCc2c1[nH]c1ccccc21.O=[N+]([O-])c1cc([N+](=O)[O-])c(O)c([N+](=O)[O-])c1	inactive: 1.01%
Cc1ccc(C)c(NP(C)(=O)Oc2ccccc2)c1 (centres undefined)	inactive: -0.604%
CP(=O)(Nc1cccc(Br)c1)Oc1ccccc1 (centres undefined)	inactive: 1.32%
Cc1cc(C)cc(OP(C)(=O)Nc2ccccn2)c1 (centres undefined)	inactive: -8.92%
COc1ccccc1OP(C)(=O)Nc1cccc(Br)c1 (centres undefined)	inactive: -3.1%
CCOC(=O)c1ccc(NP(C)(=O)Oc2cc(C)cc(C)c2)cc1 (centres undefined)	inactive: -3.67%
Cc1cc(C)cc(OP(C)(=O)Nc2ccc(C)cc2C)c1 (centres undefined)	inactive: 4.48%
O=[N+]([O-])c1cc([N+](=O)[O-])c(-c2cnn(-c3ccccc3)c2)c([N+](=O)[O-])c1	inactive: 15.4%
Cc1nc2ccc3ccccc3c2s1.O=[N+]([O-])c1cc([N+](=O)[O-])c(O)c([N+](=O)[O-])c1	inactive: -3.05%
O=[N+]([O-])c1cc([N+](=O)[O-])c(-n2nnc3ccccc32)c([N+](=O)[O-])c1	inactive: -1.81%
CN(Cc1cccnc1)C(=O)COc1ccc(Cl)c(Cl)c1.O=[N+]([O-])c1cc([N+](=O)[O-])c(O)c([N+](=O)[O-])c1	inactive: -5.5%
CN1CCCCC1COC(=O)C1(O)c2ccccc2CCc2ccccc21 (centres undefined)	inactive: 2.68%
COc1ccccc1OP(C)(=O)Nc1c(C)cccc1C (centres undefined)	inactive: -5.21%
CP(=O)(Nc1ccc(SC(F)(F)F)cc1)Oc1ccccc1 (centres undefined)	inactive: -1.04%
CCCOc1ccc(NP(C)(=O)Oc2ccc(Cl)cc2)cc1 (centres undefined)	inactive: -6.72%
O=[N+]([O-])c1cc([N+](=O)[O-])c(Nc2nnnn2CCO)c([N+](=O)[O-])c1	inactive: -9.06%
CC1=C2N=C(C=C3N=C(C(C)=C4[N-][C@@](C)([C@@H]5N=C1[C@](C)(CCC(=O)NC[C@@H](C)OP(=O)([O-])O[C@H]1[C@@H](O)[C@@H](n6cnc7cc(C)c(C)cc76)O[C@@H]1CO)[C@H]5CC(N)=O)[C@@](C)(CC(N)=O)[C@@H]4CCC(N)=O)[C@@](C)(CC(N)=O)[C@@H]3CCC(N)=O)C(C)(C)[C@@H]2CCC(N)=O.[C-]#N.[Co+3]	inactive: -0.282%
O=[N+]([O-])c1ccc(OP2(=O)COCCO2)cc1 (centres undefined)	inactive: -13.6%
Cc1cc(-c2cccc3ccccc23)c(C)cn1.O=[N+]([O-])c1cc([N+](=O)[O-])c(O)c([N+](=O)[O-])c1	inactive: -3.93%
Cc1c(C(c2ccc3c(c2)OCO3)c2c(C)n(C)n(-c3ccccc3)c2=O)c(=O)n(-c2ccccc2)n1C.O=[N+]([O-])c1cc([N+](=O)[O-])c(O)c([N+](=O)[O-])c1	inactive: 1.41%
COc1ccc(OP(C)(=O)Nc2cccc(Br)c2)cc1 (centres undefined)	inactive: -7.05%

SMILES	activity change
CN(C)CCOC(=O)C(O)(c1ccccc1)C1CCCCC1 (centres undefined)	inactive: -7.24%
COc1ccc(NP(C)(=O)Oc2ccccc2OC)cc1 (centres undefined)	inactive: 9.12%
CP(=O)(Nc1ccc2c(c1)OCCO2)Oc1ccccc1 (centres undefined)	inactive: 3.49%
Cc1ccccc1NP(C)(=O)Nc1ccccc1C	inactive: -4.22%
O=[N+]([O-])c1cc([N+](=O)[O-])c(C(F)(F)F)c([N+](=O)[O-])c1O	inactive: -2.52%
CP(=O)(Nc1ccc(SC(F)(F)F)cc1)Oc1ccc(F)cc1 (centres undefined)	inactive: 1.84%
CCOP(C)(=S)SCC(=O)NC(C)(CC)C(=O)O (centres undefined)	inactive: 0.855%
O=C(OCCN1CCN(CCOCc2ccccc2)CC1)C(O)(c1ccccc1)c1ccccc1	inactive: -3.5%
CP(=O)(Nc1ccccc1F)Oc1ccccc1 (centres undefined)	inactive: -3.16%
CC(C)c1ccc(OP(C)(=O)Nc2ccc(SC(F)(F)F)cc2)cc1 (centres undefined)	inactive: 8.04%
Cc1c([N+](=O)[O-])cc([N+](=O)[O-])c(Br)c1[N+](=O)[O-]	inactive: -0.0948%
CCN(CC)CCCOC(=O)C(O)(c1ccccc1)C1CCCCC1 (centres undefined)	inactive: -3.31%
CP(=O)(Nc1ccccc1)Oc1ccc(F)cc1 (centres undefined)	inactive: -1.89%
CCCCCOc1ccc(NP(C)(=O)Oc2ccc(Cl)cc2Cl)cc1 (centres undefined)	inactive: 3.16%
CCOC(=O)c1ccc(NP(C)(=O)Oc2ccc(F)cc2)cc1 (centres undefined)	inactive: -3.97%
COc1ccc(OP(C)(=O)Nc2ccc(SC(F)(F)F)cc2)cc1 (centres undefined)	inactive: 0.904%
CP(=O)(OCCOc1ccccc1)OCCOc1ccccc1	inactive: -18.1%
CP(=O)(Nc1ccc(Cl)cc1Cl)Oc1ccccc1 (centres undefined)	inactive: -9.81%
CCCCCCCCCCCCCCCC1C[N+](C)(C)CCOP(C)(=O)O1 (centres undefined)	inactive: 2.57%
Cc1cc(C)cc(OP(C)(=O)Nc2cccc(C(F)(F)F)c2)c1 (centres undefined)	inactive: 5.42%
COc1ccccc1OP(C)(=O)Nc1ccc(C)c(C)c1 (centres undefined)	inactive: -4.2%
COc1ccc(OP(C)(=O)Nc2ccccc2Br)cc1 (centres undefined)	inactive: -3.63%
O=[N+]([O-])c1cc([N+](=O)[O-])c(Nc2ccccn2)c([N+](=O)[O-])c1	inactive: 35.4%

SMILES	activity change
Cc1c(NP(C)(=O)Oc2ccc(C(C)C)cc2)c(=O)n(-c2ccccc2)n1C (centres undefined)	inactive: 0.0115%
COc1ccccc1OP(C)(=O)Nc1ccc(C)cc1C (centres undefined)	inactive: -15%
CP(=O)(Nc1ccccn1)Oc1ccccc1 (centres undefined)	inactive: -6.98%
CCc1ccc(OP(C)(=O)O)cc1	inactive: -8.38%
COc1ccccc1OP(C)(=O)Nc1ccc(Br)cc1 (centres undefined)	inactive: -2.82%
COc1ccc(OP(C)(=O)Nc2ccccn2)cc1 (centres undefined)	inactive: -0.783%
CN(C)CCOC(=O)C(O)(c1ccccc1)C1CCCC1 (centres undefined)	inactive: -1.26%
CC(C)(C)c1ccc(OP(C)(=O)O)cc1	inactive: 2.39%
COc1ccccc1OP(C)(=O)Nc1ccccc1Br (centres undefined)	inactive: 0.768%
CP(=O)(Nc1ccc(Cl)cc1)Oc1ccc(F)cc1 (centres undefined)	inactive: 2.97%
CN(C)C(=O)c1c([N+](=O)[O-])cc([N+](=O)[O-])cc1[N+](=O)[O-]	inactive: 13.3%
COc1ccc(OP(C)(=O)Nc2ccc(Br)cc2)cc1 (centres undefined)	inactive: 1.43%
CCN(CC)CC(O)COC(=O)C(O)(c1ccccc1)C1CCCCC1 (centres undefined)	inactive: -7.43%
O=C(OCCCN1CCCC1)C(O)(c1ccccc1)C1CCCCC1 (centres undefined)	inactive: -4.5%
COc1ccccc1OP(C)(=O)Nc1c(C)n(C)n(-c2ccccc2)c1=O (centres undefined)	inactive: -7.24%
CCc1ccc(OP(C)(=O)Nc2cccnc2)cc1 (centres undefined)	inactive: 0.708%
CP(=O)(Oc1ccccc1)N1CCOC1=O (centres undefined)	inactive: -4.45%
Nc1ccc2c(ccc3cccnc32)n1.O=[N+]([O-])c1cc([N+](=O)[O-])c(O)c([N+](=O)[O-])c1	inactive: -3.39%
CCOC(=O)c1ccc(NP(C)(=O)Oc2ccc(Cl)cc2)cc1 (centres undefined)	inactive: 3%
CP(=O)(OC12CC3CC(CC(C3)C1)C2)OC12CC3CC(CC(C3)C1)C2	inactive: 6.18%
